Measurements published in IntAct's records for PubMed 21481773.

B1: Negative regulator of ofd1 (Schizosaccharomyces pombe (strain ATCC 38366 / 972)), Q9USJ7 (parent)
chain: MIGRRPQGLRAAASLKKQQQLEKQKQEASYELSGNSSPSKENGSENVDNGEMEDETMLVYTEEDNISQLWGLYEMSREKLENDDIDASVSLVFGTIHEADRILRNTEDISTLPKDFHAAYSSALLAVSELFEIAQKRLKETNTEESYIDAAIERAQLGLDAPGNESRLFLALARAYLEKVRVLVWRHDNEESLANIPVTQLVNPYIEKAIQYLRPLAQDSTEYFDALTPDSLRPLYILSSYLFQFGDQFSEAFLLDVCSIITALWLKSVVDPNTPAYYKLIAQEAVLNNYTTFAEYYMDLLDNSESNVDDLINKASSWLNNSVDTWNVIYTLDKSPERLLKLADIKMDLAQIVQDEASQDNYLKEACNAIKEAQGSGVELSPDYVEFVEAYSA
partner: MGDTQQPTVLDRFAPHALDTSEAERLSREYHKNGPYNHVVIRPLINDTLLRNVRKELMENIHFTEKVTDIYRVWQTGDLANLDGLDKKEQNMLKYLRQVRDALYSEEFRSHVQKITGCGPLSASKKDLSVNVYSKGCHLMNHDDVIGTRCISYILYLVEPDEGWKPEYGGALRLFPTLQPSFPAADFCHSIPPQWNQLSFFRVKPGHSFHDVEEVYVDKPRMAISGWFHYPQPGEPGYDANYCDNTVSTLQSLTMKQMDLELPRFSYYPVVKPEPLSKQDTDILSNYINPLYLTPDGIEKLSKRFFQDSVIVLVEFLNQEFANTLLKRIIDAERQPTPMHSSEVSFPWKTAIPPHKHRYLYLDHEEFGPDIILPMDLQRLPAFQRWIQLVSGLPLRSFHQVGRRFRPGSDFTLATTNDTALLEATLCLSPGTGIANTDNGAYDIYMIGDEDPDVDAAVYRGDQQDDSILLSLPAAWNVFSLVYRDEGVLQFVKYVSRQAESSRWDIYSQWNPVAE

Variants of: B1
Conditions: with ofd1_schpo ofd1, Q11120

Row | Variant | effect of a mutation on the interaction
1 | D344A;D383A | decreasing interaction
2 | D348A | decreasing interaction
3 | E295A;D302A | decreasing interaction
4 | D344A | decreasing interaction
5 | Y120H;D383A | decreasing interaction
6 | D299A;D302A | decreasing interaction
7 | E295Q;D299N;D302N | decreasing interaction
